From patent US9156831B2, “Chemical compounds” (ASTRAZENECA AB, priority 2013, dated 2015)

Amino acid sequences for entries named in this document (tags omitted).
UniProt P42336, whole entry K111N, looked up: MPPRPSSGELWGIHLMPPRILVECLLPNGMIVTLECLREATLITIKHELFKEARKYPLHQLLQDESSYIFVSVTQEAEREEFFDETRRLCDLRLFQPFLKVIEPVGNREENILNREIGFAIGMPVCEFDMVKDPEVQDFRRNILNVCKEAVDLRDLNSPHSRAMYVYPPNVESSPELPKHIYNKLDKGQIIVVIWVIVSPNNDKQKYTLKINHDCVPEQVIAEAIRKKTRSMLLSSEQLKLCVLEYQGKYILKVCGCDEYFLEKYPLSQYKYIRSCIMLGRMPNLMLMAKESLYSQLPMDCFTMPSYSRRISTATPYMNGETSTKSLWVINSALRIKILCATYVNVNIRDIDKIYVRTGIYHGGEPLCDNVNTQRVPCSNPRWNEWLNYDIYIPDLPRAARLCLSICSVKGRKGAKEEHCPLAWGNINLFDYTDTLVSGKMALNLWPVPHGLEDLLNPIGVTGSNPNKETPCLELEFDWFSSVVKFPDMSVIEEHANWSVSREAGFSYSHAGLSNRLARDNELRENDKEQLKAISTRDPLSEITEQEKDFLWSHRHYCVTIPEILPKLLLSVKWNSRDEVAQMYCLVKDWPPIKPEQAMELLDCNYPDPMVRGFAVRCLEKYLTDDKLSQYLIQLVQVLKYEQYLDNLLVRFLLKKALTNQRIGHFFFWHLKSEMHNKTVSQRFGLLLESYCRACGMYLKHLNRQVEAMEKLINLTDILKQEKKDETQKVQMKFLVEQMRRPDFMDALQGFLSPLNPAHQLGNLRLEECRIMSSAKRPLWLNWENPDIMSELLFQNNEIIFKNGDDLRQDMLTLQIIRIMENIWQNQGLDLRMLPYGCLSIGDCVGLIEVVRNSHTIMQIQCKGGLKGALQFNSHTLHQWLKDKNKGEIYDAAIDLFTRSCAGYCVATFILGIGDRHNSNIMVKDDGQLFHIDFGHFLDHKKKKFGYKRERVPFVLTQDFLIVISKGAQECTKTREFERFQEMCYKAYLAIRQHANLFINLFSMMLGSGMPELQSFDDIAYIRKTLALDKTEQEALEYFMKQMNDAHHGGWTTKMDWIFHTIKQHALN

Target: PI3K-α (Homo sapiens (Human), UniProt P42336, K111N)
Assay: Phosphorylated AKT (Thr308) in BT474 cells (PI3K-α cell assay)
Assay type: cell-based
Conditions: Test protocol c, mean of replicates

SMILES: C[C@H](CO)C(=O)N1CCC(c2nc(-c3cnc(N)c(-c4nnc(C(C)(C)C)o4)n3)n(C)n2)CC1 [Example 6, (2R)-1-[4-[5-[5-amino-6-(5-tert-butyl-1,3,4-oxadiazol-2-yl)pyrazin-2-yl]-1-methyl-1,2,4-triazol-3-yl]-1-piperidyl]-3-hydroxy-2-methyl-propan-1-one]
- IC50: 530 nM

SMILES: CCn1nc(C2CCN(C(=O)CC(=O)O)CC2)nc1-c1cnc(N)c(-c2nnc(C(C)(C)C)o2)n1 [Example 9, 3-[4-[5-[5-amino-6-(5-tert-butyl-1,3,4-oxadiazol-2-yl)pyrazin-2-yl]-1-ethyl-1,2,4-triazol-3-yl]-1-piperidyl]-3-oxo-propanoic acid]
- IC50: 330 nM
